The numbers were not newly measured in publication PMC11390726, “Automated design of multi-target ligands by generative deep learning” (Nature Communications, 2024), which cites them from elsewhere.

This data set concerns the target AT1 (Homo sapiens, UniProt P30556). The conditions noted are these: read-out: potency on target (IC50 for AT1); fine-tuning set; BindingDB; cited from earlier work.

Take `CCCCc1nc(Cl)c(C(=O)O)n1Cc1ccc(-c2ccccc2-c2noc(=O)[nH]2)cc1`: the IC50 is 2 nM.
